{"source": "patent US20140329863A1", "about": "(priority 2011, published 2014)", "test_system": "N2a-cl3 cells"}
{"substance": "Dextran", "values": [{"measurement": "Potency Cell Viability, mg/L", "result": ">10 (mg/L)"}]}
